# Measured values: patent US8512678B2, “Non-invasive, in vivo fluorescent imaging of the nervous system in whole living animal” (priority 2005, dated 2013)
# What was measured:
# GFAP-GFP transgene = assay: Non-invasive in vivo neural imaging of GFAP-GFP transgenic neonatal mice (relative fluorescence, IVIS); set-up: species or system mouse; settings: 4 doses of 8 mg/kg sc every 2 hours, 24 hours after treatment, p<0.01
# Text: The generation and genotyping of the transgenic GFAP-GFP mice were done as previously described (Zhuo et al., 1997). Neonatal mice of FVB/N background at 4 days of age, weighing 2.0 g-2.5 g were used in the present study. Animal husbandry was provided by National University of Singapore animal holding unit facility. The experimental protocol covering the current study was approved by the Institutional Animal Care and Use Committee.
# The neonatal mice received a single subcutaneous (sc) injection of 2′-CH3-MPTP (12 mg/kg in saline) at 0 hour. Saline was used as a vehicle for the control group. Neural imaging was subsequently performed at 2 hr, 4 hr, 6 hr and 8 hr post-treatment.
# Non-invasive imaging was conducted using an IVIS Imaging System 100 Series (Xenogen Corp., Alameda, Calif., U.S.A.). […] Result of the neurotoxic effect of 2′-CH3-MPTP on the mice was expressed as relative fluorescence (RF), a ratio between the total GFP fluorescent signals detected from the region of interest (ROI) in transgenic (Tg) mouse and the tissue autofluorescence signals from the ROI in non-transgenic (nTg) mouse (TgROI/nTgROI). The area of the ROI for both mice is exactly the same and is identical throughout all the ROI used in the study to quantify the radiances. […]
# GFAP gene expression = assay: Real-time RT-PCR of brain RNA, GFAP gene expression; format: in vivo, mouse; settings: for enhancement in gene expression of GFAP compared to untreated mice: 24 hours after treatment, 4×8 mg/kg, p<0.01
# Description: (§1) […] The brain was removed and then lysed in buffer RA1 and β-mercaptoethanol. Total RNA from the brain was isolated using NucleoSpin® RNA II kit. Total RNA was reverse-transcribed with random hexamers and real-time RT-PCR was performed on the cDNA to quantify gene expression.
# (§2) For mice treated with MPTP (1×12 mg/kg), they were sacrificed 2 hours after treatment. The brain was removed and then lysed in buffer RA1 and β-mercaptoethanol. Total RNA from the brain was isolated using NucleoSpin® RNA II kit. Total RNA was reverse-transcribed with random hexamers and real-time RT-PCR was performed on the cDNA to quantify gene expression. The same procedure is carried out for mice treated with KA (1×2 mg/kg).
# GFP gene expression = assay: Real-time RT-PCR of brain RNA, GFP gene expression; format: in vivo, mouse; settings: transgenic mice
# Description: as §1, §2
smiles,measurement,setting,value
"CN1CC=C(c2ccccc2)CC1 [MPTP, 1-methyl-4-phenyl-1,2,3,6-tetrahydropyridine]","increase in relative fluorescence (RF), mean, over the control group",GFAP-GFP transgene,15%
same,enhancement in gene expression of GFAP compared to untreated mice,GFAP gene expression; non-transgenic mouse,~88%
same,enhancement in gene expression of GFAP,"GFAP gene expression; transgenic mice, 2 hours after treatment, 1×12 mg/kg, p<0.001",about 47%
same,enhancement in gene expression of GFAP compared to untreated mice,GFAP gene expression; transgenic mouse,about 91%
same,enhancement in gene expression of GFP,"GFP gene expression; 2 hours after treatment, 1×12 mg/kg, p<0.01",~20%
same,enhancement in gene expression of GFP compared to untreated mice,"GFP gene expression; 24 hours after treatment, 4×8 mg/kg",no statistically significant enhancement
